Reference: ChEMBL document CHEMBL5346911, “From PROTAC to inhibitor: Structure-guided discovery of potent and orally bioavailable BET inhibitors” (Eur J Med Chem, 2023)

Amino acid sequences for entries named in this document (tags omitted).
UniProt P25440, whole entry: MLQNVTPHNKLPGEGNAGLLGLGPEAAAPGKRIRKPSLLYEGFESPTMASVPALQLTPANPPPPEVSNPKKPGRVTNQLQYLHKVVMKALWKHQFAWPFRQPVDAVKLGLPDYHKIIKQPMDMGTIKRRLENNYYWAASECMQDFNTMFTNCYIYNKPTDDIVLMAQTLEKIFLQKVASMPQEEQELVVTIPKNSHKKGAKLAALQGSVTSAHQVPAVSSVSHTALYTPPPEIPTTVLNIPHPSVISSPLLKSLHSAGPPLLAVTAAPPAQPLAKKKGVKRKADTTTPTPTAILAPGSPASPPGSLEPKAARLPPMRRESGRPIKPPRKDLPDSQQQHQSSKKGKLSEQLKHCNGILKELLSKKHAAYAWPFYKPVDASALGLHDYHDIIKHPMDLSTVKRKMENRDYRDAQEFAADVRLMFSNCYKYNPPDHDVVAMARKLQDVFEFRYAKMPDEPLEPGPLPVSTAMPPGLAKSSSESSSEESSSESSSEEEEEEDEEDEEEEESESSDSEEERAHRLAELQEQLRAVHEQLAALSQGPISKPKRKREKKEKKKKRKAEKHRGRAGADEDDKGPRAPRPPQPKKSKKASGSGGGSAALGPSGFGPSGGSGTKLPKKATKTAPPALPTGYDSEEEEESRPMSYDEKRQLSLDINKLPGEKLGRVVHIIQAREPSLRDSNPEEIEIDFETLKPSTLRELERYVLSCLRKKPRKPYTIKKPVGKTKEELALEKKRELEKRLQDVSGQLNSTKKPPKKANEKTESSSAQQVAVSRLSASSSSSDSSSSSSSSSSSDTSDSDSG

What was measured:
[1] = molecular target: T1, Bromodomain-containing protein 2 (Homo sapiens, UniProt P25440); assay: Inhibition of BRD2 BD2 (unknown origin) by TR-FRET assay
[2] = molecular target: T1, Bromodomain-containing protein 2; assay: Inhibition of BRD2 BD1 (unknown origin) by TR-FRET assay

Molecule `Cc1sc2c(c1C)C(c1ccc(Cl)cc1)=N[C@@H](CC(=O)Nc1ccc(O)cc1)c1nnc(C)n1-2` [BIRABRESIB] has an IC50 [1] of 0.003 µM and an IC50 [2] of 0.058 µM.
